Test results as given in patent US10851082B2, “Substituted aromatic n-heterocyclic compounds as inhibitors of mitogen-activated protein kinase interacting kinase 1 (MNK1) and 2 (MNK2)” (Northwestern University, priority 2015, dated 2020).
Where two headings read alike, the source gives them in different places.

Columns and labels:
Mnk1 [1] = experiment: Cellular inhibition of Mnk1, flow cytometry of phospho-eIF-4E (Ser209), U937 cells; format: cell-based; conditions: read-out: U937 pEIF4E IC50, phospho-eIF-4E Ser209, flow cytometry
Mnk1 [2] = target: Mnk1 (Homo sapiens (Human), UniProt Q9BUB5); experiment: Mnk1 kinase inhibition, ADP-Glo ADP monitoring assay; format: biochemical
Mnk1 [3] = experiment: Cellular inhibition of Mnk1, flow cytometry of phospho-eIF-4E (Ser209), MV4-11 cells; format: cell-based; conditions: read-out: MV4-11 pEIF4E IC50, phospho-eIF-4E Ser209, flow cytometry

| SMILES | IC50 (Mnk1 [1]) [nM] | IC50 (Mnk1 [2]; read-out: Mnk1 IC50) [nM] | IC50 (Mnk1 [3]) [nM] | IC50 (Mnk1 [2]; unit inferred, read-out: Mnk1 IC50) [nM] | IC50 (Mnk1 [2]; read-out: Mnk1 inhibition IC50 (+,++,+++)) [nM] |
| --- | --- | --- | --- | --- | --- |
| c1ccc2c(c1)ncn2-c1ccnc(NC2CCOC2)n1 (stereo not drawn) [NUCC-0125583] | 5.5 | 40 | 7 | – | – |
| c1ccc2c(c1)ncn2-c1ccnc(N[C@H]2CCOC2)n1 [NUCC-0176148] | 100 | 190 | 37 | – | – |
| c1ccc2c(c1)ncn2-c1ccnc(N[C@@H]2CCOC2)n1 [NUCC-0176149] | – | 540 | – | – | – |
| Brc1cnc(NCCc2ccncc2)nc1-n1ccnc1 [NUCC-0196229] | – | – | – | 480 | – |
| N#Cc1cnc(-n2cnc3ccccc32)nc1NCCCc1ccncc1 [NUCC-0200914] | – | – | – | – | < 1000 |
